The nature of the assay: reduced survival of JAK2V617F-driven Ba/F3 cells – cell-based, Ba/F3 EpoR-JAK2V617F, luminescence, triplicate, JAK2V617F inhibitor project, confirmation (AID 1521).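 Further: 0% = DMSO-treated cells and 100% = JAK inhibitor I control wells; higher means lower luminescence from reduced cell ATP and viability.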 Particulars: Ba/F3 EpoR-JAK2V617F viability, CellTiter-Glo luminescence; at 5.6 µM; stronger effect = higher value.

Only a part is listed here, and it is no random draw. Active and inactive are the calls of the source.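 How the source made its calls: active means mean inhibition above the hit cutoff derived in the earlier primary screen (cut at about 25% in these data); inactive means the rest.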

As usually defined, the inhibition is the drop in the measured response relative to a control, in per cent.

`CC(=O)NC(SC(=S)N(CC(C)C)CC(C)C)C(Cl)(Cl)Cl` (stereo unspecified): the inhibition is inactive: -13.2%.

The values above are taken from PubChem BioAssay AID1521 (The Scripps Research Institute Molecular Screening Center, 2009).
